In ChEMBL document CHEMBL1150286, “Discovery and optimization of triazolopyridazines as potent and selective inhibitors of the c-Met kinase” (J Med Chem, 2008):

Target: Hepatocyte growth factor receptor (Homo sapiens, UniProt P08581)
Experiment: Inhibition of c-Met by HTRF assay

IC50: 9 nM
Structure (SMILES): COc1ccc2c(OCc3nnc4ccc(-c5ccccc5)nn34)ccnc2c1 [AMG-208]
